We go through six compounds from ChEMBL document CHEMBL1135700, “Design, synthesis and activity of ascorbic acid prodrugs of nipecotic, kynurenic and diclophenamic acids, liable to increase neurotropic activity” (2002).

Sequences of proteins named here, by UniProt entry; tags and fusion partners are left off. A change or cut given only in a name is not applied to a line headed by its entry.
UniProt Q9UGH3: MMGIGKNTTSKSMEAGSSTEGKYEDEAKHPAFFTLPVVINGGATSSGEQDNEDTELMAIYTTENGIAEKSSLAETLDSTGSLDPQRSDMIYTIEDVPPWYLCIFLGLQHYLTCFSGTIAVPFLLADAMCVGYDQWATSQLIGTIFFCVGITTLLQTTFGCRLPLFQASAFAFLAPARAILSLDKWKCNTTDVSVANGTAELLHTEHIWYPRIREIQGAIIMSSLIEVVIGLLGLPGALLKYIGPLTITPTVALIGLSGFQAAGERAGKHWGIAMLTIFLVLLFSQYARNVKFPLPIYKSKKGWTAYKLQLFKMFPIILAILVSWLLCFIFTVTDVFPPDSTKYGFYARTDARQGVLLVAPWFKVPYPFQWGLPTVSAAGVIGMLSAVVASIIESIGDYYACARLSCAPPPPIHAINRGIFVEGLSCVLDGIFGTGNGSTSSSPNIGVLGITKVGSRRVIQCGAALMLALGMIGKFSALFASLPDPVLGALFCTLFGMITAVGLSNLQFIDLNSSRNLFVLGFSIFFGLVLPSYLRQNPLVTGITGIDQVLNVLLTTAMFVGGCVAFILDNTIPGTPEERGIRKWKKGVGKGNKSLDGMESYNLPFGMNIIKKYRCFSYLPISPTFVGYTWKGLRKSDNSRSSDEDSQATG

The target of series [1] is Solute carrier family 23 member 2 (Homo sapiens) (UniProt Q9UGH3). To be noted: 75 uM.
The subject of series [2] is O=C1O[C@H]([C@@H](O)COC(=O)C2CCCNC2)C(O)=C1O. To be noted: 5 mM.
Series [3] has as its system O=C1O[C@H]([C@](O)(Br)CO)C(O)=C1O. To be noted: 5 uM.
For series [4], the system named is O=C1O[C@H]([C@@H](O)COC(=O)c2cc(O)c3ccccc3n2)C(O)=C1O. To be noted: 100 uM.
Series [5] has as its system O=C(Cc1ccccc1Nc1c(Cl)cccc1Cl)OC[C@H](O)[C@H]1OC(=O)C(O)=C1O. To be noted: 250 nM.
The test system is the same in series [6]. As to conditions: 3 uM.
Series [7] deals with O=C1O[C@H]([C@@H](O)COC(=O)c2cc(O)c3ccccc3n2)C(O)=C1O. To be noted: 500 uM.
For series [8], the system named is O=C(Cc1ccccc1Nc1c(Cl)cccc1Cl)OC[C@H](O)[C@H]1OC(=O)C(O)=C1O. As to conditions: 750 nM.
For series [9], the target named is Solute carrier family 23 member 2 (Homo sapiens) (UniProt Q9UGH3). As to conditions: 100 uM.
Series [10] shares this target. To be noted: 500 uM.
For series [11] the target is unchanged. As to conditions: 5 mM.
Series [12] shares this target. To be noted: 2 mM.
For series [13] the target is unchanged. To be noted: 250 nM.
The target is the same in series [14]. To be noted: 3 uM.
For series [15] the target is unchanged. To be noted: 750 nM.
The target is the same in series [16].

As for `O=C1O[C@H]([C@](O)(Br)CO)C(O)=C1O`, in series [1], the Kt was found to be 816 µM.

For the compound “Solute carrier family 23 member 2 (Homo sapiens), Q9UGH3”, the Vmax (nM hr-1 (10e6*cells)-1) is 4.1 in series [2]; 4.1 in series [3]; 4.6 in [4]; 4.5 in [5]; 4.4 in series [6]; 4 in series [7]. The Vmax (nM hr-1 (10e6*cells)-1) in series [8] amounted to 4.1.

`O=C1O[C@H]([C@@H](O)COC(=O)c2cc(O)c3ccccc3n2)C(O)=C1O`: the Kt amounted to 119 µM in series [9] and 296 µM in series [10].

Regarding `O=C1O[C@H]([C@@H](O)COC(=O)C2CCCNC2)C(O)=C1O` (stereo partly specified), the Kt in series [11] was 165 µM; in series [12], 94 µM.

With `O=C(Cc1ccccc1Nc1c(Cl)cccc1Cl)OC[C@H](O)[C@H]1OC(=O)C(O)=C1O`, the Kt was found to be 73 µM in series [13], 609 µM in series [14] and 188 µM in series [15].

Turning to `O=C1O[C@H]([C@@H](O)CO)C(O)=C1O`, the Kt in series [16] worked out at 36 µM.
